{"source": "patent US20150238573A1", "about": "“NUTRITIONAL FOOD AND FEED, COMPOSITION, PROCESSING AND METHOD OF USE” (Nutrinia Ltd., priority 2004, published 2015)", "conditions": "600 μU/ml insulin for 40 days"}
{"substance": "Insulin", "values": [{"measurement": "Glucose", "result": "92.83 ± 16.14", "unit": "mg/dL"}, {"measurement": "Hematological pictures, study vs control group", "result": "similar"}]}
